# Molecular target: T1, DMPK Catalytic Domain (Homo sapiens, UniProt Q09013)
# T1 sequence (Q09013 71-339 limits assumed): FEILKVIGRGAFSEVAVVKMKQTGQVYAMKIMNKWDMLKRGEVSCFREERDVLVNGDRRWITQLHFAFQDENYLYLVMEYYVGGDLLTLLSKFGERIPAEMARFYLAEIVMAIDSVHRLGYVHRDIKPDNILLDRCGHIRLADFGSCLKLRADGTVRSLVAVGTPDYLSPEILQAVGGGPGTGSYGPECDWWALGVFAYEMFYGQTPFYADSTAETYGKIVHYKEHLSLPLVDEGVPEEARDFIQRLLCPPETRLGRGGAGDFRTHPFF
# Assay: Differential Scanning Fluorimetry (DSF) Tm shift
# Type: binding
# Parameters: For all of them, we expressed and purified the catalytic domain separately; His-tag; made in house; host or cells: Escherichia coli
# Conditions: 2 µM protein, 10 µM inhibitor, average of 3 experiments, each in duplicate
compound,measurement,value
CO[C@@H]1[C@H](N(C)C(=O)c2ccccc2)C[C@H]2O[C@]1(C)n1c3ccccc3c3c4c(c5c6ccccc6n2c5c31)C(=O)NC4,Melting temperature (Tm) shift,1.7 degrees Celcius

# — publication PMC4051630, “A Comparison of Protein Kinases Inhibitor Screening Methods Using Both Enzymatic Activity and Binding Affinity Determination” (PLoS ONE, 2014)
